This assay deals with T1, human NPRA (Homo sapiens, UniProt P16066).
T1 construct: Full-Length cDNA Cloning and Generation of Cell Lines Overexpressing Natriuretic Peptide Receptors (NPRs); expressed in transfected cells; host or cells: Jump-in T-Rex HEK293 cells, pJTI R4 CMV-TO MCS pA vector, tetracycline induction
T1 sequence (P16066 33-1061): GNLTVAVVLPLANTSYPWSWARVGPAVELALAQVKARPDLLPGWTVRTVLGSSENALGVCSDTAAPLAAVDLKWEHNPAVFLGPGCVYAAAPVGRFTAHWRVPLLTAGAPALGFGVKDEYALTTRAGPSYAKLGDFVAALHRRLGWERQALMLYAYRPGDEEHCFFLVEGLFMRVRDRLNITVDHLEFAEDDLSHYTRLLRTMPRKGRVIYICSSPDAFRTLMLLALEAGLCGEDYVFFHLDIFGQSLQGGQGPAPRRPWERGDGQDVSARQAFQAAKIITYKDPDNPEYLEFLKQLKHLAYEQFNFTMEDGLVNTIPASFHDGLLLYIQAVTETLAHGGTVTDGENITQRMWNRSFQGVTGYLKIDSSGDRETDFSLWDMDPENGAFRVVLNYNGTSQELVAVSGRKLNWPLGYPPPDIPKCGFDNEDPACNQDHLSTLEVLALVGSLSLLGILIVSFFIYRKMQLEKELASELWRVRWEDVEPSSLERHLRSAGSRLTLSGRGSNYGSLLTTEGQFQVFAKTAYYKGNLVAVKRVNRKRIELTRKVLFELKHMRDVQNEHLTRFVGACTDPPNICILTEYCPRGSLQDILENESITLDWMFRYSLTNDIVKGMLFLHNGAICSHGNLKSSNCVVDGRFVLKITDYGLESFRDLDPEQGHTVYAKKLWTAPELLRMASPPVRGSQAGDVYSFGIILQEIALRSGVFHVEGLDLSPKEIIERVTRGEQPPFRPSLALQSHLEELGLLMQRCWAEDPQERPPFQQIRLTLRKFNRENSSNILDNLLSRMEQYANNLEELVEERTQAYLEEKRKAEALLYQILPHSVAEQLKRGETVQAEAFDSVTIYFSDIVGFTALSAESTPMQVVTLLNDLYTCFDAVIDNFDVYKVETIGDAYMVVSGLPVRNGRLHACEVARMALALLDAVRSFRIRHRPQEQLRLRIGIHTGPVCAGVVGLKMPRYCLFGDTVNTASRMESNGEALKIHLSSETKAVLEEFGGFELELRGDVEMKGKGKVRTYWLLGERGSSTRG
As to the kind of experiment: Human NPRA cGMP activity assay (HTRF) in HEK293 cells overexpressing NPRA. In kind it is cell-based. The procedure: All sequences were verified by full-length sequencing performed by ACGT DNA Sequencing Services (Wheeling, IL). The target cDNA was cloned into pJTI R4 CMV-TO MCS pA vector and then co-transfected with pJT1R4 Int vector into Jump-in™ T-Rex™ HEK293 cells for mammalian inducible expression using Jump-in™ T-Rex™ HEK293 kit and Lipofectamine LTX and Plus Reagent following manufacturer's protocols, as briefly described below.
Jump-in™ T-Rex™ HEK293 cells were plated in a BioCOAT® poly-D-lysine coated 6-well plate (Becton Dickinson, cat no. 354413) at 1 million cells/well in 2 mL culture medium and incubated for 18 h at 37° C. and 5% CO2 to 50-70% confluence. A cDNA mix was made in a 50 mL tube by adding 1.5 μg target cDNA, 1.5 μg pJT1R4 Int vector, 3 μL Plus Reagent, and 300 μL Opti-MEM I sequentially into the tube. A reagent mix was made in a separate 50 mL tube by adding 7.5 μL Lipofectamine LTX into 300 μL Opti-MEM I. The mixtures were incubated for 5 min at room temperature. The cDNA mix was then transferred into the reagent mix, mixed well, and incubated for additional 30 min at room temperature. A 500 μL of cDNA/Lipofectamine complex was then transferred to the wells of the cell plate in which the culture medium was changed to 2 mL of transfection medium containing DMEM with 4.5 g/L D-glucose supplemented with 10% FBS-HI and 20 mM HEPES. Transfected cells were cultured for 48 h in an incubator at 37° C. and 5% CO2. A subclone or pool from each overexpressing cell line was maintained in culture medium with the addition of 2 mg/mL G418 sulfate for the clone selection based on its built-in resistance to G418 sulfate for at least 3 weeks with medium changed every 2-3 days.
NPRs were overexpressed in T-Rex™ HEK293 cells following the induction with 300 ng/mL tetracycline in culture medium for 48 h. Induced cell lines in an exponential growth phase were treated with 0.05% trypsin-EDTA for a few seconds at room temperature, harvested in cell medium containing FBS to neutralize the trypsin, counted, and cryopreserved at the density of 2 million cells/mL in cell preservation solution containing FBS-HI with 5% DMSO. Cryopreserved cells were stored at −80° C. for a few days prior to transferring to a liquid nitrogen tank. Induced cell lines were then used for suspension assays to measure the activity of polypeptides to stimulate cGMP production in cGMP assays or for the preparation of cell membranes to measure the binding activity of polypeptides in competitive radioligand binding assays, as described below.
Test polypeptides were added starting at 10 μM concentration and at 10-fold decreasing concentrations to obtain 8-point concentration-response curves (i.e., 10 μM to 1 pM). The quantity of cGMP generated was detected using HTRF® technology and normalized to maximum amount produced by 100 nM amidated rat ANP and the minimum amount produced by assay buffer. Detailed steps are outlined below.
Stock solutions of test polypeptides (2 mM) dissolved in DMSO were first diluted 100-fold in assay buffer containing HBSS with Ca^2+ and Mg^2+, 5 mM HEPES, 0.5 mM IBMX, and 0.1% BSA or 0.1% casein (pH 7.4). The polypeptides were further serially diluted in 1:10 dilution steps in assay buffer containing 0.1% BSA or 0.1% casein to generate 8-point 2× working stock solutions ranging from 20 μM to […].
A 10 μL cell suspension containing 4000 cells was plated in Costar® half-area white opaque 96-well plates (Corning, cat no. 3693). Then 10 μL of assay buffer (basal activity), 200 nM of amidated rat ANP (maximum activity) or 2× working stock solutions of test polypeptides were transferred into the plate. Final concentration of DMSO in each well was 0.5%. The plate was shaken for 15 sec and then incubated for 40 min at room temperature.
The cGMP generated was measured using cGMP kit following the manufacturer's directions, as described below.
For orientation: TR-FRET usually uses a lanthanide donor and a delayed reading to cut background.

The mark [1] stands for this setting: cGMP Assay (EC50, pM) w/Casein hNPRA, assay buffer with 0.1% casein.

Broadly, the EC50 is the concentration that produces a half-maximal response.

`CC[C@H](C)[C@@H]1NC(=O)[C@H](CCCNC(=N)N)NC(=O)[C@H](CC(=O)O)NC(=O)[C@H]([C@@H](C)CC)NC(=O)[C@H](CCCNC(=N)N)NC(=O)CNC(=O)CNC(=O)[C@H](Cc2ccccc2)NC(=O)[C@@H](NC(=O)[C@H](CO)NC(=O)[C@H](CO)NC(=O)[C@H](CCCNC(=N)N)NC(=O)[C@H](CCCNC(=N)N)NC(=O)[C@H](Cc2ccncc2)NC(=O)[C@H](CO)NC(=O)CNC(=O)[C@H](CCCCN)NC(=O)[C@H](CCC(=O)O)NC(=O)[C@H](CCCCN)NC(=O)[C@H](CCC(=O)O)NC(=O)[C@H](CCCCN)NC(=O)[C@H](CCC(=O)O)NC(=O)CC[C@H](NC(=O)CCCCCCCCCCCCCCCCCCC(=O)O)C(=O)O)CSSC[C@@H](C(=O)N2CCC[C@H]2C(=O)N[C@@H](CO)C(=O)N[C@@H](Cc2ccccc2)C(=O)N[C@@H](CCCNC(=N)N)C(=O)N[C@@H](Cc2ccncc2)C(=O)NCC(=O)NCC(=O)N2CCC[C@H]2C(=O)N[C@@H](CO)C(=O)N[C@@H](CO)C(=O)NCC(=O)N[C@@H](C)C(=O)N2CCC[C@H]2C(=O)N2CCC[C@H]2C(=O)N2CCC[C@H]2C(=O)N[C@@H](CO)C(N)=O)NC(=O)CNC(=O)[C@H](CC(C)C)NC(=O)CNC(=O)[C@H](CO)NC(=O)[C@H](CCC(N)=O)NC(=O)[C@H](C)NC(=O)CNC1=O` [Example 23] had an EC50 under setting [1] of 3490 pM. The same measure, in the same setting: the figure for `CC[C@H](C)[C@@H]1NC(=O)[C@H](CCCNC(=N)N)NC(=O)[C@H](CC(=O)O)NC(=O)[C@H]([C@@H](C)CC)NC(=O)[C@H](CCCCN)NC(=O)CNC(=O)CNC(=O)[C@H](Cc2ccccc2)NC(=O)[C@@H](NC(=O)[C@H](CO)NC(=O)[C@H](CO)NC(=O)[C@H](CCCNC(=N)N)NC(=O)CNC(=O)[C@H](CCCCN)NC(=O)[C@H](CCC(=O)O)NC(=O)[C@H](CCCCN)NC(=O)[C@H](CCC(=O)O)NC(=O)[C@H](CCCCN)NC(=O)[C@H](CCC(=O)O)NC(=O)CC[C@H](NC(=O)CCCCCCCCCCCCCCCCCCC(=O)O)C(=O)O)CSSC[C@@H](C(=O)N2CCC[C@H]2C(=O)N[C@@H](CO)C(=O)N[C@@H](Cc2ccccc2)C(=O)N[C@@H](CCCNC(=N)N)C(=O)N[C@@H](Cc2c[nH]cn2)C(=O)N[C@@H](CCCCN)C(=O)NCC(=O)N2CCC[C@H]2C(=O)N[C@@H](CO)C(=O)N[C@@H](CO)C(=O)NCC(=O)N[C@@H](C)C(=O)N2CCC[C@H]2C(=O)N2CCC[C@H]2C(=O)N2CCC[C@H]2C(=O)N[C@@H](CO)C(N)=O)NC(=O)CNC(=O)[C@H](CC(C)C)NC(=O)CNC(=O)[C@H](CO)NC(=O)[C@H](Cc2ccc(O)cc2)NC(=O)[C@H](Cc2c[nH]cn2)NC(=O)CNC1=O` [Example 47] is 299 pM. Take `CC[C@H](C)[C@@H]1NC(=O)[C@H](CCCNC(=N)N)NC(=O)[C@H](CC(=O)O)NC(=O)[C@H]([C@@H](C)CC)NC(=O)[C@H](CCCNC(=N)N)NC(=O)CNC(=O)CNC(=O)[C@H](Cc2ccccc2)NC(=O)[C@@H](NC(=O)[C@H](CO)NC(=O)[C@H](CO)NC(=O)[C@H](CCCNC(=N)N)NC(=O)CCNC(=O)[C@H](CCCCN)NC(=O)[C@H](CCC(=O)O)NC(=O)CCOCCOCCOCCOCCOCCOCCOCCOCCOCCOCCOCCOCCOCCOCCOCCOCCOCCOCCOCCOCCOCCOCCOCCOCCNC(=O)CNC(=O)[C@H](CCCCN)NC(=O)[C@H](CCC(=O)O)NC(=O)[C@H](CCCCN)NC(=O)[C@H](CCC(=O)O)NC(=O)[C@H](CCCCN)NC(=O)[C@H](CCC(=O)O)NC(=O)CC[C@H](NC(=O)CCCCCCCCCCCCCCCCCCC(=O)O)C(=O)O)CSCSC[C@@H](C(=O)N2CCC[C@H]2C(=O)N[C@@H](CO)C(=O)N[C@@H](Cc2ccccc2)C(=O)N[C@@H](CCCNC(=N)N)C(=O)N[C@@H](Cc2c[nH]cn2)C(=O)NCC(=O)NCC(=O)N[C@@H](CCCCN)C(=O)N[C@@H](CO)C(=O)N[C@@H](CO)C(=O)NCC(=O)N[C@@H](C)C(=O)N2CCC[C@H]2C(=O)N2CCC[C@H]2C(=O)N2CCC[C@H]2C(=O)N[C@@H](CO)C(N)=O)NC(=O)CNC(=O)[C@H](CC(C)C)NC(=O)CNC(=O)[C@H](CO)NC(=O)[C@H](Cc2ccc(O)cc2)NC(=O)[C@H](Cc2c[nH]cn2)NC(=O)CNC1=O` [Example 78]: it took 19700 pM to reach a half-maximal effect (cGMP Assay (EC50, pM) w/BSA hNPRA, assay buffer with 0.1% BSA) (EC50).
